# Properties, as collected for the OPERA models

From the experimental data distributed with OPERA 2.9.

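These are experimental values that the OPERA curators gathered from public databases to train and test their QSAR models. A listed value is a point estimate from one report or more. Method, purity and exact conditions of the single measurements are not given. A value may pool stereoisomers or salt forms, and the file does not say which form was measured. Unmarked limits or estimates from the upstream databases cannot be ruled out.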

Melting points are in °C.
Boiling points are in °C, nominally at 760 mmHg.
The octanol-water partition coefficient is given as log10; larger values mean a more lipophilic compound.
Water solubility is log10 of mol/L, nominally at 25 °C; higher is more soluble.
Vapor pressure is log10 of mmHg; the set covers 15 to 30 °C, mostly 20 to 25 °C.
Henry's law constant (air-water partitioning) is log10 of atm·m3/mol, nominally at 25 °C.
The unbound fraction in human plasma runs from 0 (all bound) to 1 (all free).
Intrinsic clearance (human, µL/min per 10^6 hepatocytes): higher is faster turnover, and 0 stands for none detected.

* O=c1[nH]c2ccccc2n1CCCCl: melting point 114.7 °C; log Kow 2.2; log vapor pressure -3.989 (log10 mmHg)
* CC1=CCC(O)(C(C)C)CC1 (stereo unspecified): melting point -25.65 °C; log S -1.939 (log10 mol/L); log vapor pressure -0.399 (log10 mmHg); Henry's law constant -4.339 (log10 atm·m3/mol)
* O=S(Cc1ccccc1)Cc1ccccc1: log S -2.859 (log10 mol/L); log vapor pressure -7.233 (log10 mmHg)
* CS(=O)(=O)c1ccc(C=O)c(C(F)(F)F)c1: melting point 113 °C; log Kow 1.7; log S -2.465 (log10 mol/L); log vapor pressure -5.471 (log10 mmHg)
* CN(C)CCN(C)CCO: log Kow 0.264; log vapor pressure -0.365 (log10 mmHg)
* O=C1NS(=O)(=O)c2ccccc21: boiling point 285 °C; log vapor pressure -6.095 (log10 mmHg)
* NS(=O)(=O)c1cc2c(s1)S(=O)(=O)CCC2O (stereo unspecified): melting point 168 °C; log S -1.355 (log10 mol/L)
* O=C(c1ccccc1)c1ccc(-c2ccccc2)cc1: log S -6.545 (log10 mol/L); log vapor pressure -6.669 (log10 mmHg)
* CC(=O)OCCC(C)CCC=C(C)C (stereo unspecified): log Kow 4.9; log S -4.158 (log10 mol/L); log vapor pressure -1.654 (log10 mmHg)
* CC(=O)c1cccc2ccccc12: log Kow 2.723; log S -3.086 (log10 mol/L)
* CCCCC(CC)CNc1ccc(NCC(CC)CCCC)c2c1C(=O)c1c(O)ccc(O)c1C2=O (stereo unspecified): melting point 124 °C; log S -8.995 (log10 mol/L); log vapor pressure -6.482 (log10 mmHg)
* CC(C)CN(CC(C)C)C(=S)SSC(=S)N(CC(C)C)CC(C)C: melting point 70.5 °C; log S -6.923 (log10 mol/L); log vapor pressure -7.021 (log10 mmHg)
* O=C1c2ccccc2-c2ccccc21: log S -3.797 (log10 mol/L); log vapor pressure -4.314 (log10 mmHg)
* OCc1ccc(Br)cc1: log Kow 1.59; log vapor pressure -3.073 (log10 mmHg)
* NS(=O)(=O)Cc1noc2ccccc12: log Kow 0.5; log S -2.007 (log10 mol/L); fu 0.6
* CCC(C)(C)c1ccccc1: melting point -74 °C; log Kow 4.95
* CC(=O)C[C@@H]1O[C@H](COC(C)=O)[C@@H](OC(C)=O)[C@H](OC(C)=O)[C@H]1OC(C)=O: log Kow 0.63; log S -2.635 (log10 mol/L)
* CC(=O)OC[C@H]1O[C@@](COC(=O)C(C)C)(O[C@H]2O[C@H](COC(C)=O)[C@@H](OC(=O)C(C)C)[C@H](OC(=O)C(C)C)[C@H]2OC(=O)C(C)C)[C@@H](OC(=O)C(C)C)[C@@H]1OC(=O)C(C)C: log S -6.074 (log10 mol/L); log vapor pressure -7.71 (log10 mmHg)
* Clc1cc(Cl)c(Oc2cc(Cl)c(Cl)cc2Cl)cc1Cl: melting point 114 °C; log S -8.36 (log10 mol/L)
* CN(C)CCOC(=O)C(c1ccccc1)C1(O)CCCC1 (stereo unspecified): log Kow 2.4; log S -2.288 (log10 mol/L)
* Cc1ccc(C=O)cc1C: log Kow 2.45; log S -2.277 (log10 mol/L); log vapor pressure -0.534 (log10 mmHg)
* COc1c(Cl)ccc(Cl)c1C(=O)O: fu 0.1488; hepatic Clint 0.65 µL/min/10^6 cells
* O=C1c2c(O)ccc(Nc3ccccc3)c2C(=O)c2c([N+](=O)[O-])ccc(O)c21: melting point 230 °C; log Kow 6.9; log S -8.646 (log10 mol/L)
* CC1(C)S[C@@H]2[C@H](N=CN3CCCCCC3)C(=O)N2[C@H]1C(=O)O: log Kow 1.3; log S -2.522 (log10 mol/L)
* C[C@H](O)[C@H](O)[C@H]1CNc2[nH]c(N)nc(=O)c2N1: melting point 252.5 °C; log S -1.081 (log10 mol/L)
* CN(C)CCC(=O)N(C)C: melting point 0.5 °C; log vapor pressure 1.176 (log10 mmHg)
* O=C(Nc1ccccc1)NS(=O)(=O)Nc1ccccc1: melting point 165 °C; log Kow 1.666; log S -3.75 (log10 mol/L)
* C=CC(C)CCCC(C)(C)O (stereo unspecified): log Kow 3.47; log S -2.507 (log10 mol/L); log vapor pressure -0.872 (log10 mmHg)
* O=C=Nc1ccc(OP(=S)(Oc2ccc(N=C=O)cc2)Oc2ccc(N=C=O)cc2)cc1: melting point 86.9 °C; log S -6.492 (log10 mol/L); log vapor pressure -5.736 (log10 mmHg)
* Clc1ccc(C(Cn2ccnc2)OCc2ccsc2Cl)c(Cl)c1 (stereo unspecified): log Kow 4.4; log S -4.371 (log10 mol/L)
* Nc1ccc(CCc2ccc(N)cc2)cc1: log Kow 2.25; log S -3.646 (log10 mol/L)
* CCOc1ccc(S(=O)(=O)N2CCN(C)CC2)cc1C(=O)O: melting point 192.5 °C; log Kow -2.37
* Cc1ncoc1C#N: melting point -2 °C; log vapor pressure 0.403 (log10 mmHg)
* CC12CCC3C(CCC4C(C)(C)CCCC43C)(CO1)O2 (stereo unspecified): melting point 117 °C; log Kow 5.9; log S -5.645 (log10 mol/L); log vapor pressure -5.011 (log10 mmHg)
* CCOC(=O)C1(OC(=O)Cc2ccc(Cl)cc2Cl)CCCCC1: melting point 44.2 °C; log S -5.277 (log10 mol/L)
* CCCCCCCCCCCCNc1nc(Cl)nc(Nc2ccc3c(O)c(/N=N/c4ccc(/N=N/c5ccc(S(=O)(=O)[O-])cc5)cc4)c(S(=O)(=O)[O-])cc3c2)n1.[Na+].[Na+]: log Kow -1.6; log S -3.359 (log10 mol/L)